These results are taken from patent US8324384B2, “Glucagon receptor antagonist compounds, compositions containing such compounds and methods of use” (Merck Sharp & Dohme Corp., priority 2010, dated 2012).

Chains of the proteins cited; added tags and fusions are not shown. Residues count along the entry.
UniProt P47871, 26-477 limits assumed: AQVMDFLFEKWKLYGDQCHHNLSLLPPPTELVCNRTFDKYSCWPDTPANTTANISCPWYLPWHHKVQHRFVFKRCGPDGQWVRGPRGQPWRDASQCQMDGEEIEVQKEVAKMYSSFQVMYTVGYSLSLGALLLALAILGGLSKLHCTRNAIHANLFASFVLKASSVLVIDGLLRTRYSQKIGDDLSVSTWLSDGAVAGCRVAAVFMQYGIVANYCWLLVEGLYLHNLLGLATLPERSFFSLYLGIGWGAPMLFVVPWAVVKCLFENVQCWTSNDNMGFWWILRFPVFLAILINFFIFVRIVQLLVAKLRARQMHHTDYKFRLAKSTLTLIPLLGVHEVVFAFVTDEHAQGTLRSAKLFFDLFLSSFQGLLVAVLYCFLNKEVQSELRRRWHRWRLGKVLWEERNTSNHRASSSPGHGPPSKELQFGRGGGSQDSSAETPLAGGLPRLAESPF

The assay has as its target cloned human glucagon receptor (Homo sapiens, UniProt P47871). Kind of assay: Glucagon Receptor Binding Assay (125I-Glucagon, SPA, CHO cell membranes). The note with it: inhibition of 125I-Glucagon binding to membranes of CHO cells expressing human glucagon receptor; more active isomer of indicated compounds. How it is done:
Glucagon Receptor Binding Assay
A stable CHO (Chinese hamster ovary) cell line expressing cloned human glucagon receptor was maintained as described (Chiechi, et. al. J Biol Chem 272, 7765-9(1997); Cascieri, et. al. J Biol Chem 274, 8694-7(1999)). To determine antagonistic binding affinity of compounds, 0.001-0.003 mg of cell membranes from these cells were pre-incubated with 0.100 mg WGA-coated PVT SPA beads (Amersham) for 20 minutes at room temperature in 25 μL of a buffer containing 50 mM Tris-HCl (pH 7.5), 5 mM MgCl2, 2 mM EDTA, 0.1% BSA and 3% glycerol in Costar 384 well plates with clear bottoms (#3706). Next, 25 μL of ^125I-Glucagon (New England Nuclear, MA) (1×10^−14 mol per well) and either 1 μL solutions of test compounds or 0.001 mM unlabeled glucagon or DMSO were added and mixed. After 4-12 hours incubation at room temperature, the radioactivity bound to the cell membranes was determined in a radioactive emission detection counter (Wallac-Microbeta). Data were analyzed using the Data Analyzer software program of Merck & Co., Inc. The IC50 values were calculated using non-linear regression analysis assuming single-site competition.

For the compound `CCCC(c1ccc(C(=O)NCCC(=O)O)cc1)C(C(=O)N1CCc2cc(F)ccc2C1)c1ccc(Cl)cc1` (stereo not shown), the IC50 (usually the concentration that gives 50% inhibition) came to 2 nM.
